Measurements reported in PMC3934827 (Neuropharmacology, 2014).

Tests used:
[1] = system: cortical-, extrapyramidal motor- and autonomic-mediated functions; assay: Drug Effects on Nervous System; details: risperidone s.c.; p < 0.001
[2] = system: parkinsonian motor effects; assay: Standardized motor disability scale for parkinsonian primates; assay type: in vivo, Rhesus monkeys (Macaca mulatta); details: risperidone 0.032 and 0.1 mg/kg s.c.

## Cc1nc2n(c(=O)c1CCN1CCC(c3noc4cc(F)ccc34)CC1)CCCC2 [risperidone, reference compound]
[1]
  DENS salivation, compared with MP-10: considerably more salivation
[2]
  social interaction score, in comparison to MP-10: roughly comparable increases
